In publication PMC9490236, “Accurate de novo design of membrane-traversing macrocycles” (Cell, 2022):

Assays:
[1] = Caco-2 permeability assay (apical to basolateral); type: in vitro ADME, human; conditions: average of 3 replicates, read-out: Caco_Papp_Average
Protocol: Human colon adenocarcinoma-derived Caco-2 cell line was used as a model system to investigate the intestinal epithelial permeability of our designs. Caco-2 cells were propagated in T125 flasks (Corning, Merck) using Dulbecco’s modified Eagle medium supplemented with 10% (v/v) fetal bovine serum, 1% (v/v) nonessential amino acids, and 1% (v/v) penicillin-streptomycin (Gibco, Thermo Fisher Scientific) at 37°C in an atmosphere of 5% CO2. Cells were subcultured when they reached 80% confluence.
The permeability of designed peptides was evaluated using an accelerated 6-day Caco-2 permeability assay as described previously ([Sevin et al., 2013]). In brief, cells were seeded into the 12-well Transwell plates with 0.4 μm polyester membrane inserts (Corning, Merck) to give 4.0 × 10^5 cells/well. The complete assay medium contained Dulbecco’s modified Eagle medium supplemented with 10% (v/v) fetal bovine serum, 1% (v/v) nonessential amino acids, and 0.4 μg/mL puromycin. The medium in plates was renewed every second day. […] The peptide concentration of solutions in the apical and basolateral compartments was subsequently quantified using LC-MS (Qstar Elite, AB Sciex Australia) to evaluate the transmembrane flux of peptides in the apical-to-basolateral direction. […]

[2] = Parallel artificial membrane permeability assay (PAMPA)

Compound `CC(C)C[C@@H]1NC(=O)[C@H]2CCCN2C(=O)[C@@H](CC(C)C)NC(=O)[C@@H](CC(C)C)NC(=O)[C@@H](CC(C)C)N(C)C(=O)[C@H](C(C)C)NC(=O)[C@@H](C)NC(=O)[C@@H](C)N(C)C(=O)[C@@H]2CCCN2C1=O` (relative stereo) [Design D9.16, PRO *DALA DALA VAL *DLEU DLEU DLEU DPRO LEU] has a Papp A→B [1] of 2.48 ×10⁻⁶ cm/s and a Papp [2] of 3.27 ×10⁻⁶ cm/s.
